Reference: patent US6376506B1, “Sulfamide-metalloprotease inhibitors” (Syntex (U.S.A.) LLC, priority 1997, dated 2002)

Tested on: Human Monomac 6 cells
Assay: Inhibition of TNF release in vitro assay (LPS/PMA stimulated)
Details: Conc. 10 μM, LPS/PMA stimulated Monomac 6 cells, 2 h

## O=C(NO)[C@H](CSc1ccccc1)NS(=O)(=O)N1CCN(c2ccc(Cl)cn2)CC1
  % inhibition: 41%
